{"source": "patent US12109231B2", "about": "“Treatment of neurodegenerative disease with sodium chlorite” (Neuvivo, Inc., priority 2015, dated 2024)", "test_system": "ALS patients", "details": "phase 1 or 2 trials", "data": [{"substance": "sodium chlorite", "values": [{"measurement": "toxicities", "value": "No toxicities were noted"}]}]}
